According to patent US20120177632A1, “METHODS OF OPTIMIZING DISEASE TREATMENT” (priority 2011, published 2012):

Tests used:
Vav1 = Vav1 expression in bone marrow-derived macrophages (western blot); format: cell-based, mouse; details: WT BMMs; 1000 units/ml 24 h pretreatment, then 5 mM ATP 1 h
Protocol: (§1) Bone marrow-derived macrophages from wild-type mice were pretreated with 1000 units/ml rIFNα for 24 hours before treatment with 5 mM ATP for one hour. Cell lysates were prepared for western blot as described above and probed for Vav1 expression using a using a rabbit anti-Vav1 antibody (Cell Signaling Technology), followed by an HRP-conjugated donkey anti-rabbit antibody (Pierce) and chemiluminescent detection (ECL reagents, GE Healthcare). The same membranes were stripped and probed again by western blot to detect β-actin, and Vav1 signal densitometry for each sample was normalized to β-actin using NIH Image/Image J software. […] Bone marrow-derived macrophages obtained from wild-type mice were pretreated with 1,000 units/ml rIFNα or IFNβ for 24 hours before treatment with 5 mM ATP for 5, 10, or 15 minutes. Cells were then lysed, and total GTP-Rac1 was compared to GTP-Rac1 by western blot first using an antibody specific for GTP-Rac1, followed by membrane stripping and probing with an antibody recognizing total Rac1. GTP-Rac1 signal densitometry for each sample was normalized to total Rac1 using NIH Image/Image J software.

multiple sclerosis [1] = details: background statement; cited from earlier work
SOCS-1 = experiment: SOCS-1, IP10 and Mx1 mRNA in bone marrow-derived macrophages (quantitative RT-PCR); format: cell-based; details: WT BMMs; 1,000 units/ml recombinant mouse IFN-β or 10,000 units/ml IFN-β-1b, 6 h
Protocol: IFN-β mediates its effects on NADPH oxidase activity through SOCS-1. First, IFN-β induces SOCS-1 expression. Bone marrow-derived macrophages derived from wild-type mice were incubated with no treatment, 1,000 units/ml recombinant mouse IFN-β, or 10,000 units/ml human recombinant IFN-β-1b (Betaseron®) for 6 hours. Total RNA was purified from each group of cells using TRIzol® reagent (Invitrogen™), and SOCS-1, IP10, and Mx1 mRNA in each sample was measured by quantitative RT-PCR, and values were normalized to the sample with no IFN-β exposure. […] In addition, a decrease in SOCS-1 expression increases cellular levels of Vav1 and GTP-Rac1. Mouse bone marrow-derived macrophages were transduced with a lentiviral expression vector expressing a shRNA that decreases SOCS-1 expression (see FIG. 2(g)). Four hours later, rIFN-β was added (1,000 units/ml), and the cells were incubated for 24 hours. […] SOCS-1 also mediates inhibition of ROS and IL-1β production by IFN-β. Bone marrow-derived macrophages were treated with 100 ng/ml Ultrapure LPS and 5 mM ATP, with or without lentiviral transduction with the anti-SOCS-1 shRNA. ROS was detected by flow cytometry as described, see FIG. 2(k), and IL-1β secretion was detected by ELISA using standard techniques, see FIG. 2(l). In addition, SOCS-1 associates with Rac1-GTP as detected by immunoprecipitation. […]

GTP-Rac1 = GTP-Rac1 level in bone marrow-derived macrophages (western blot); format: cell-based, mouse; details: WT BMMs; 1,000 units/ml 24 h pretreatment, then 5 mM ATP 5, 10 or 15 min
Protocol: as §1

NADPH oxidase = experiment: p47phox foci (active NADPH oxidase) in bone marrow-derived macrophages, confocal microscopy; format: cell-based, mouse; details: WT BMMs; 24 h pretreatment, then 5 mM ATP 1 h
Protocol: IFNAR signaling inhibits ROS production by inhibiting NADPH oxidase activity. […] Cells incubated with and without IFN-β pretreatment for 24 hours were then exposed to 5 mM ATP for 1 hour, fixed, and probed with a FITC-conjugated anti-p47^phox antibody to detect foci representing active NADPH oxidase.

passive EAE = experiment: Passive EAE by adoptive transfer of CD4+ T cells into Rag2-/- mice; format: in vivo, mouse
NLRP3-independent EAE = NLRP3-independent EAE in WT mice by aggressive induction regimen; format: in vivo, mouse; details: aggressive induction (MOG day 0 and 7, 400 μg Mtb)
multiple sclerosis [2] = experiment: Clinical response of MS patients to IFN-β therapy; format: in vivo, human; details: clinical data, not shown
NLRP3 inflammasome = NLRP3 inflammasome activity in vivo in EAE mice (serum IL-1β, splenocyte IL-1β, caspase-1 p20); set-up: species or system mouse
Protocol: EAE was induced in Asc−/−, Nlrp3−/−, and wild-type mice. For EAE induction, MOG35-55 peptide (100 μg/mouse) was emulsified with CFA (100 μl/mouse, including 200 μg of heat-killed Mycobacteria), and subcutaneously injected in the flanks of mice on day 0. Mice were also i.p. injected with Pertussis toxin (200 ng/200 μl PBS/mouse) on days 0 and 2. Representative data from one of three independent experiments with disease scores presented as mean±SEM for each group (n=5). (FIGS. 3(b), (c)). […] Numbered squares indicate representative regions of cell infiltration (H&E) and demyelination (LFB) shown at high magnification. Arrowheads indicate regions of demyelination. The NLRP3-inflammasome is activated during EAE progression. Serum IL-1β (FIG. 3(e)) and IL-18 (FIG. 3(f)) levels in wild-type, Asc−/−, and Nlrp3−/− mice were measured by ELISA using standard techniques on days 9 and 17 after EAE induction. IL-1β production was greater in splenocytes isolated from wild-type than Asc−/− mice 9 days after EAE induction. Cells were treated with Ultrapure LPS (100 ng/ml) alone for 24 hours, and secreted IL-1β was measured in the cell culture media using standard techniques.
Caspase-1 p20 and β-actin were detected in 24-hr total splenocyte culture supernatants and cell lysates, respectively, by western blot using standard techniques. […]

[3] = tested on: experimental autoimmune encephalomyelitis; experiment: EAE induced with MOG35-55/CFA/Mtb in wild-type, Nlrp3-/- and Asc-/- mice; format: in vivo; details: 300 μg Mtb, 0.3×10^5 unit/mouse i.p. every other day, day 0 to 10

| Molecule | Vav1 expression (Vav1) | proportion of MS patients that are non-responders (multiple sclerosis [1]) | SOCS-1 mRNA expression (SOCS-1) | cellular levels of GTP-Rac1 (Rac1 activation) (GTP-Rac1) | average number of p47phox foci per cell (NADPH oxidase) | frequency of cells exhibiting p47phox foci (NADPH oxidase) | EAE development (passive EAE; Rag2-/- recipients of CD4+ T cells from EAE mice, no adjuvant) | NLRP3 inflammasome activity (IL-1β, caspase-1 p20) (passive EAE; Rag2-/- recipients, splenic macrophages 23 days after T cell transfer) | EAE development (NLRP3-independent EAE) | efficacy of therapy in MS patients who also develop optic neuritis (multiple sclerosis [2]) | NLRP3 inflammasome activity in vivo (IL-1β and activated caspase-1 levels) (NLRP3 inflammasome; WT mice with EAE, day 9) | EAE severity ([3]; Asc-/- mice) | EAE severity ([3]; Nlrp3-/- mice) | EAE severity ([3]; wild-type mice) | active caspase-1 p20 levels in splenocytes (NLRP3 inflammasome; WT mice 9 days after EAE induction, 0.3×10^5 unit/mouse i.p. every other day) |
| --- | --- | --- | --- | --- | --- | --- | --- | --- | --- | --- | --- | --- | --- | --- | --- |
| IFN-β: interferon-β as worded without preparation; first-line therapy for MS; in the examples rIFNβ in vitro, IFNβ-1b in vivo (protein, UniProt P01574 22-187, looked up) Interferon beta: MSYNLLGFLQRSSNFQCQKLLWQLNGRLEYCLKDRMNFDIPEEIKQLQQFQKEDAALTIYEMLQNIFAIFRQDSSSTGWNETIVENLLANVYHQINHLKTVLEEKLEKEDFTRGKLMSSLHLKRYYGRILHYLKAKEYSHCAWTIVRVEILRNFYFINRLTGYLRN | downregulating Vav1 expression | approximately one-third | increased to a similar degree as IP10 and Mx1 | decreases cellular levels of GTP-Rac1 | reductions | reductions | successfully treated | suppression of NLRP3 inflammasome activity | does not work | does not work | suppressed NLRP3 inflammasome activity in vivo |  |  |  |  |
| IFNβ-1b: human recombinant IFN-β-1b (Betaseron®), produced in E. coli (protein, UniProt P01574 22-187, looked up) Interferon beta: MSYNLLGFLQRSSNFQCQKLLWQLNGRLEYCLKDRMNFDIPEEIKQLQQFQKEDAALTIYEMLQNIFAIFRQDSSSTGWNETIVENLLANVYHQINHLKTVLEEKLEKEDFTRGKLMSSLHLKRYYGRILHYLKAKEYSHCAWTIVRVEILRNFYFINRLTGYLRN |  |  |  |  |  |  |  |  |  |  |  | not ameliorated | not ameliorated | ameliorated EAE | decreased active caspase-1 p20 levels |
